{"source": "patent US10300024B2", "about": "“Proteinoid compounds, process of preparing same and uses thereof” (Bar-Ilan University, priority 2015, dated 2019)", "assay": "Carboxyl group analysis by titration", "type": "physicochemical", "conditions": "titrimetric, back-titration", "method": "Without being bound by any particular theory, it is believed that the content of free carboxyl groups in the synthesized proteinoids is an essential factor in determining their solubility in different media, thus helping to understand their stability at different sites in the human body with different pHs. In order to determine the free carboxyl groups in the synthesized proteinoids, a titrimetric method was carried out. Briefly, to a known quantity of dry proteinoid, a known excess of 0.05 N NaOH was added, followed by the addition of 37% formaldehyde solution. The unreacted NaOH was back-titrated with standard 0.05 N HCl. A blank titration was also performed. In addition, human serum albumin (HSA) was titrated for comparison."}
{"substance": "Albumin: human serum albumin titrated for comparison", "values": [{"measurement": "[Carboxyl groups]", "value": 56, "unit": "mmol/g"}]}
